High-throughput results deposited in PubChem BioAssay by ICCB-Longwood Screening Facility, Harvard Medical School.
Only some compounds are listed: those with a hit (about 0.43% of all), similar ones and a draw of the others.
HCMV NEC inh: cytomegalovirus nuclear egress complex inhibition | inhibition, % (test concentration not listed) | HTRF UL50-UL53 interaction, normalized percent inhibition | 190,000 tested, 0.15% active | AID 1918969; in the data active means inhibition above about 27%, passing the limit was not always enough
GIV-Gai inh: inhibitors of GIV GBA-motif binding to rat Galpha-i3. P08753. Galpha-i3/FITC-GIV peptide fluorescence polarization, 90 min; hits give low values; scaled: aluminum fluoride 0%, vehicle 100%. percent of control (FP), % (no concentration beside the values). 210,000 compounds, 0.42% hits;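 active = replicate mean at 85% of control or lower, very high polarization wells dropped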;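 also: wells of about 15 µL received 100 nL stock; the first replicate is given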
Starred values were filed as active, the others as inactive; . = no result; ! = a repeat was not active.

#1 CCc1ccc2c(CC(=O)Nc3ccc(N4CCOCC4)cc3)coc2c1
#2 COC(=O)CC1SC(=O)NC1=S (stereo not drawn)
#3 COC(=O)CC1SC(=O)NC1=Nc1ccc(C)cc1 (stereo not drawn)
#4 CCC(=O)Nc1nnc(SCC(=O)Nc2ccccc2)s1
#5 CCN(CC)c1ccc2cc(-c3nc(-c4ccccc4)cs3)c(=O)oc2c1
#6 CCN(CC)c1ccc2cc(-c3nc(-c4ccccc4F)no3)c(=O)oc2c1
#7 CCN(CC)c1ccc2cc(-c3csnn3)c(=O)oc2c1
#8 CCN(CC)c1ccc2cc(-c3nnc(-c4cccc(Cl)c4)o3)c(=O)oc2c1

Screen / compound no.	1	2	3	4	5	6	7	8
HCMV NEC inh	-28	-72	0	3	.	.	-32	-45
GIV-Gai inh	.	-68*	.	.	-32*!	117	162	7.6*

Arranged by molar mass (low to high): some entries from above.
#2 COC(=O)CC1SC(=O)NC1=S (stereo not drawn)
#3 COC(=O)CC1SC(=O)NC1=Nc1ccc(C)cc1 (stereo not drawn)
#7 CCN(CC)c1ccc2cc(-c3csnn3)c(=O)oc2c1
#6 CCN(CC)c1ccc2cc(-c3nc(-c4ccccc4F)no3)c(=O)oc2c1

Screen / compound no.	2	3	7	6
HCMV NEC inh	-72	0	-32	.
GIV-Gai inh	-68*	.	162	117

The list goes on.
#9 CCN(CC)c1ccc2cc(-c3nc(-c4cc(OC)c(OC)c(OC)c4)no3)c(=O)oc2c1
#10 CCN(CC)c1ccc2cc(-c3csc(C)n3)c(=O)oc2c1
#11 CCN(CC)c1ccc2cc(-c3nc(-c4cccs4)no3)c(=O)oc2c1
#12 COc1cc(-c2noc(-c3cc4cccc(C)c4oc3=O)n2)cc(OC)c1OC
#13 Cc1ccc2ccc3cc(C(=O)N4CCc5ccccc54)nc3c2[nH]1
#14 Cc1ccc2[nH]c3c(c2c1)CCC1C3=NNC1c1ccco1 (stereo not drawn)
#15 Cc1ccc2[nH]c3c(c2c1)CCc1cn[nH]c1-3
#16 CCN(CC)c1ccc(/C=C2/SC(=O)NC2=O)cc1

Screen / compound no.	9	10	11	12	13	14	15	16
HCMV NEC inh	.	-42	.	.	-6	.	-16	-44
GIV-Gai inh	-21*	.	-21*	101	107	-66*	99	182

#17 CCN(CC)c1ccc(/C=C/c2cc(=O)cc(C)o2)cc1
#18 COCCCNC(=O)CSc1ccc2c3c(cccc13)C(=O)c1ccccc1-2
#19 O=C(CSc1ccc2c3c(cccc13)C(=O)c1ccccc1-2)Nc1ccccc1
#20 N#Cc1cccc(NC(=O)CSc2nc3cc(S(=O)(=O)N4CCCCC4)ccc3o2)c1
#21 CCN1/C(=C/C=C2/C(=O)N(C)C(=S)N2C)Oc2ccccc21
#22 CCCN1C(=S)N(CCO)C(=O)/C1=C/C=C1/Oc2ccccc2N1CCC(=O)O
#23 CCn1nnc2c(NCCCN3CCOCC3)ncnc21
#24 CCc1cccc(NC(=O)c2cc3cc4cc(OC)ccc4nc3s2)c1

Screen / compound no.	17	18	19	20	21	22	23	24
HCMV NEC inh	-59	.	.	-19	-10	-116	.	.
GIV-Gai inh	-61*	-73*	99	.	252	-20*	102	102

#25 O=C(O)c1cc2ccccc2c(=O)[nH]1
#26 O=c1[nH]c(Nc2ccccc2)cc2ccccc12
#27 CC(C)/C=C1\CC/C(=C\c2ccc(N(C)C)cc2)C1=O
#28 CN(C)c1ccc(/C=C2/CCC/C(=C\c3ccc(N(C)C)cc3)C2=O)cc1
#29 CCc1ccccc1NC(=O)Cc1c(C(=O)O)[nH]c2ccc(Cl)cc12
#30 COc1cccc(C(=O)c2sc3nsc(SCc4ccccc4)c3c2N)c1
#31 COc1cccc(C(=O)Nc2nnc(SCc3ccccc3)s2)c1
#32 Cc1ccc(-c2nc3sc(CCNS(=O)(=O)c4ccccc4)c(C)n3n2)cc1

Screen / compound no.	25	26	27	28	29	30	31	32
HCMV NEC inh	-23	110*	.	-15	0	-39	-8	.
GIV-Gai inh	104	-60*	-75*	188	103	-42*	.	98

#33 CCOc1cc(/C=C2\SC(=S)N(CC)C2=O)cc(Cl)c1O
#34 CCOc1cccc(/C=C2\SC(=S)N(CC)C2=O)c1O
#35 Cc1cc(N2CCCCC2)nc(N2CCN(C(=O)C(C)Oc3ccccc3)CC2)n1 (stereo not drawn)
#36 CN(C)C(=O)C(Cc1ccccc1)N1C(=O)C2C3C=CC(C3)C2C1=O (stereo not drawn)
#37 Cc1cccc(NC(=O)c2cc3ccccn3n2)c1
#38 CC(C)c1ccc(NC(=O)c2cc(S(=O)(=O)N3CCCCC3)cn2C)cc1
#39 N#Cc1c(=O)n(O)c2ccccc2[n+]1[O-]
#40 O=c1c(-c2ccc(Oc3ccccc3)cc2)[n+]([O-])c2ccccc2n1O

Screen / compound no.	33	34	35	36	37	38	39	40
HCMV NEC inh	-19	-21	.	.	-20	.	-132	-64
GIV-Gai inh	-15*	.	111	104	103	100	-33*	116

#41 N#C/C(=C\c1ccc(N2CCCC2)o1)c1ccccc1
#42 N#C/C(=C\c1ccc(-c2ccccc2)o1)c1ccccc1
#43 CCCn1c(SCc2nc(-c3ccc(OCC)cc3)no2)nnc1-c1ccc(Cl)cc1
#44 COc1ccc(CCNC(=O)CCn2c(SCc3ccc([N+](=O)[O-])cc3)nc3ccccc3c2=O)cc1OC
#45 O=C1/C(=C/C2CC=CCC2)SC(=S)N1CC1CCCO1 (stereo not drawn)
#46 O=C1/C(=C/c2ccc(O)cc2)SC(=S)N1CC1CCCO1 (stereo not drawn)
#47 NC(CCc1nc2ccccc2[nH]1)c1nc2ccccc2[nH]1 (stereo not drawn)
#48 CCOC(=O)c1ccc2c(c1)n(CCCS(=O)(=O)[O-])c(/C=C/C=C1\N(CC)c3cc(Cl)c(Cl)cc3N1CCOc1ccccc1)[n+]2CC

Screen / compound no.	41	42	43	44	45	46	47	48
HCMV NEC inh	-19	9	-12	.	.	.	-12	.
GIV-Gai inh	-49*	137	105	117	100	-24*	106	112

#49 CCOC(=O)c1ccc2c(c1)N(CCCS(=O)(=O)O)/C(=C/C=C/c1n(CCCS(=O)(=O)[O-])c3cc(C(=O)OCC)ccc3[n+]1CC)N2CC
#50 CCN=C1S/C(=C\c2ccc(C(=O)OC)cc2)C(=O)N1CC
#51 CCN1C(=O)/C(=C\C=C2/N(CC)c3ccc(C(=O)OC)cc3N2CC)SC1=S
#52 O=S(=O)(c1ccc(F)c(F)c1)N1CCc2nc(-c3ccc(F)cc3)ncc2C1
#53 COc1ccc(S(=O)(=O)N2CCCC(C(=O)NC(C)C)C2)cc1OC (stereo not drawn)
#54 CN(C)c1ccc(C=C2C(=O)OC(C)(C)OC2=O)cc1
#55 CN(C)c1ccc(C=C2C(=O)OC(C)(C(C)(C)C)OC2=O)cc1 (stereo not drawn)
#56 CCN(CC)c1ccc(C=C2C(=O)OC(c3ccccc3)OC2=O)cc1 (stereo not drawn)

Screen / compound no.	49	50	51	52	53	54	55	56
HCMV NEC inh	.	-58	-44	.	0	-25	1	9
GIV-Gai inh	-62*	100	-74*	100	102	115	17*	.

#57 CCN(CC)c1ccc(C=C2C(=O)OC3(CCCC3)OC2=O)cc1
#58 Cc1ccc(-c2nnn(C3CCOC3=O)n2)cc1 (stereo not drawn)
#59 O=C(CSc1nc(NCC2CCCO2)c2ccccc2n1)NCc1ccccc1 (stereo not drawn)
#60 CCOc1ccc(CCNC(=O)C2c3ccccc3C(=O)N3CCc4ccccc4C23)cc1OCC (stereo not drawn)
#61 O=C1Cc2ccccc2C(=O)N1
#62 O=C1CC(=O)Nc2ccccc2N1
#63 CCCNS(=O)(=O)c1ccc2c(c1)N(Cc1noc(C3CCC3)n1)C(=O)CO2
#64 COC(=O)c1[nH]c2ccccc2c1NC(=O)CN(C)C

Screen / compound no.	57	58	59	60	61	62	63	64
HCMV NEC inh	4	-2	.	.	100*	-18	.	-35
GIV-Gai inh	-26*	.	115	103	.	100	97	105

#65 CC(=O)NC(CC(=O)Nc1ccc(N2CCOCC2)cc1N1CCOCC1)c1ccccc1 (stereo not drawn)
#66 CC(=O)NC(N1CCCC1=O)(C(F)(F)F)C(F)(F)F
#67 Cc1ccc(NC(=O)CSc2nc3c(oc4ccccc43)c(=O)n2Cc2ccc(F)cc2)c(C)c1
#68 COc1ccc(C)cc1NC(=O)CSc1nc2c(sc3ncccc32)c(=O)n1Cc1ccc(F)cc1
#69 CCN(CC)CCn1c(SCC(=O)Nc2cccc(OC)c2)nc2c(sc3ccccc32)c1=O
#70 COc1cccc(NC(=O)CSc2nc3c(sc4ncccc43)c(=O)n2Cc2ccc(C)cc2)c1
#71 Clc1ncc(CN2CCCc3ccccc32)s1
#72 CC(=O)Nc1cc(C(=O)NCCN(C)Cc2ccccc2)ccc1Sc1ccc(F)cc1
#73 O=C(Nc1ccccc1F)c1cncc(NS(=O)(=O)c2ccc(F)cc2)c1

Screen / compound no.	65	66	67	68	69	70	71	72	73
HCMV NEC inh	-10	-7	.	55*	.	79*	-22	5	-18
GIV-Gai inh	.	.	109	102	103	100	103	105	98
